From publication PMC11236828 (Bioresources and Bioprocessing, 2024) come the findings set out here.

The data set has as its system O=CO. Description: purified protein. Conditions: 50 mM sodium acetate pH 5.0, 25 °C, atmospheric oxygen, enzyme at 14 h.

The term Km denotes the concentration of substrate that gives half-maximal velocity. A word on the kcat: it is the maximal rate divided by the concentration of active sites. As usually defined, the kcat/Km is the second-order rate constant that governs catalysis at low substrate concentration. For the substance “Formate oxidase (FOx) (Aspergillus oryzae RIB40; S94T)”, the Km is given as 97 ± 9.0 mM, the kcat turned out to be 4 s⁻¹ and the specificity constant (kcat/Km) was less than 100 M⁻¹ s⁻¹.
